Measured values: PubChem BioAssay AID485 (The Scripps Research Institute Molecular Screening Center, 2006)
The list shows a part of the results, in another mix than the full data. Activity calls are given as the source filed them.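 Rule for the calls: active = inhibition above the plate cutoff, the mean inhibition of test wells on that plate plus 3 SD (cut at about 28% in these data); inactive = the rest.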

The chains behind the UniProt entries cited, without tags or fusion partners. Where a name states a change or a piece, a line headed by the entry shows the natural chain unless it says otherwise.
UniProt Q99500: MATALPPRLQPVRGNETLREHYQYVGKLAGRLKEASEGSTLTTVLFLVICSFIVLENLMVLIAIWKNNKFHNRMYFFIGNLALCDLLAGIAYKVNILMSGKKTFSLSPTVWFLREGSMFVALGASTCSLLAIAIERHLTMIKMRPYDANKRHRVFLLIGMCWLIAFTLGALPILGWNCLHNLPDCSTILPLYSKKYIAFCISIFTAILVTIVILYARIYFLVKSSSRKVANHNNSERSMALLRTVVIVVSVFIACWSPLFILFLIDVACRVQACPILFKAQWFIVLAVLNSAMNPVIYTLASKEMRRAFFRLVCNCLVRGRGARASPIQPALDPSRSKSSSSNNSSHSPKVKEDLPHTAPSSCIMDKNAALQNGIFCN

Target: Sphingosine 1-phosphate receptor 3 (Homo sapiens) (UniProt Q99500)
Test: S1P3 receptor antagonists, primary screen, cell-based (AID 485);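 note: cells challenged with S1P at its EC80 of 0.8 µM; blue over green emission ratio from cleaved BLA substrate after 4 h stimulation; 0% = S1P-stimulated wells and 100% = unstimulated DMSO-only wells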
Conditions: CHO S1P3 NFAT-BLA reporter, FRET fluorescence, antagonist mode; at 4.98 µM; active compounds read high

| Structure (SMILES) | inhibition |
| --- | --- |
| CS(=O)(=O)c1cc([N+](=O)[O-])c2no[n+]([O-])c2c1 | inactive: -0.57% |
| O=P(Nc1nccs1)(c1ccccc1)c1nc2ccccc2s1 (stereo not drawn) | active: 74.7% |
| O=P(Nc1nccs1)(Oc1ccccc1)Oc1ccccc1 | inactive: 17.1% |
| CCOP1(=S)c2c(C)nn(CCC#N)c2N=C(c2ccccc2F)N1C (stereo not drawn) | inactive: -14.5% |
| O=C(O)COc1ccc([As](=O)(O)O)cc1[N+](=O)[O-] | inactive: 15.6% |
| Nc1ccccc1[As](=O)(O)c1ccccc1 | inactive: 2.67% |
| CCOP1(=S)c2c(C)nn(CCC#N)c2N=C(c2ccc(F)cc2)N1C (stereo not drawn) | inactive: -12.1% |
| COc1cc(C(=O)NCC2(N3CCOCC3)CCCCC2)cc(Cl)c1OC(C)C | inactive: -17.8% |
| O=[As](O)(O)c1cccnc1 | inactive: -4.09% |
| O=C(OC1CN2CCC1CC2)c1ccc(Cl)cc1 (stereo not drawn) | inactive: -1.77% |
| O=[As](O)(c1cccc(O)c1)c1cccc(O)c1 | inactive: -12.5% |
| CCCOP(=S)(Nc1nc(N)cc(=O)[nH]1)OCCC | inactive: -12.8% |
| Nc1cccc2c([As](=O)(O)O)cccc12 | inactive: 10.2% |
| Cc1ccc(NCCc2c([N+](=O)[O-])cc([N+](=O)[O-])cc2[N+](=O)[O-])cc1 | inactive: -3.29% |
| CCOP(=O)(Nc1cccc2ccccc12)OCC | inactive: -3.46% |
| COc1cc(C2NCCC3(OCCO3)C2(C)C)cc(OC)c1OC (stereo not drawn) | inactive: -15.1% |
| CCOP(=O)(Nc1ccc(C)cn1)OCC | inactive: -0.67% |
| O=P1(Nc2ccccn2)COc2ccccc2OC1 | inactive: 1.6% |
| CC(C)(C)C(=O)NC(Sc1ncccn1)C(Cl)(Cl)Cl (stereo not drawn) | inactive: -0.04% |
| Clc1n[nH]nc1-c1nn[nH][15n]1 | inactive: 4.9% |
| CN(C(=O)Cc1ccc(Cl)c(Cl)c1)[C@@H]1CCCC[C@H]1N1CCCC1 | inactive: 12.8% |
| CC(C)/C=N\N=C(\N)N[N+](=O)[O-] | inactive: -2.5% |
| CC1CCC(C(C)C)C(OP(=O)(Nc2ccccn2)c2ccccc2)C1 (stereo not drawn) | inactive: 2.2% |
| Cc1nn(-c2ccccc2)c2c1P(=O)(N1CCOCC1)N(C)C(c1ccccc1)=N2 (stereo not drawn) | inactive: -13.3% |
| O=C(/C=C/c1ccccc1)OC1CN2CCC1CC2 (stereo not drawn) | inactive: 5.26% |
| CN(C)C1(CNC(=O)c2ccc(S(C)(=O)=O)cc2)CCCCC1 | inactive: -26% |
| O=P1(Nc2ncccn2)COc2ccccc2OC1 | inactive: -0.1% |

| Structure (SMILES) | inhibition |
| --- | --- |
| O=P1(Nc2ccc(Br)cn2)COc2ccccc2OC1 | inactive: -13.4% |
| O=[As](O)(c1cccs1)c1cccs1 | inactive: -7.41% |
| Nc1cccc([As](=O)(O)c2ccccc2)c1 | inactive: 8.3% |
| CCOC(=O)Nc1ccc([As](=O)(O)O)c(O)c1 | inactive: -3.78% |
| Cc1cc(SC(NC(=O)c2ccccc2)C(Cl)(Cl)Cl)nc(C(C)C)n1 (stereo not drawn) | inactive: 0.39% |
| CCOC(=O)Nc1cccc([As](=O)(O)O)c1 | inactive: -0.3% |
| O=[N+]([O-])c1ccc(Nc2ccc(Oc3ccc([N+](=O)[O-])cc3[N+](=O)[O-])cc2)c([N+](=O)[O-])c1 | inactive: 3.63% |
| Cc1cc(SC(NC=O)C(Cl)(Cl)Cl)ncn1 (stereo not drawn) | inactive: -1.06% |
| O=P(Nc1ccccn1)(c1cccc2ccccc12)c1cccc2ccccc12 | inactive: -20.6% |
| COP1(=S)c2c(C)nn(CCC#N)c2N=C(c2ccc(F)cc2)N1C (stereo not drawn) | inactive: -29.4% |
| O=C(COc1ccccc1)OC1CN2CCC1CC2 (stereo not drawn) | inactive: -17.1% |
| CCOC(=O)c1ccc(NC(=O)C(C)(CCl)SC)cc1 (stereo not drawn) | inactive: -3.18% |
| Cc1cc(=O)[nH]c(N[N+](=O)[O-])n1 | inactive: -7.39% |
| O=C(OC1CN2CCC1CC2)C12CC3CC(CC(C3)C1)C2 (stereo not drawn) | inactive: 6.9% |
| Cc1c2c(nc3ccccc13)SC(C(Cl)Cl)C2 (stereo not drawn) | inactive: 8.39% |
| COc1cc(I)ccc1[As](=O)(O)O | inactive: -10.2% |
| COc1ccc2nc(NP(=O)(c3ccccc3)c3ccccc3)sc2c1 | inactive: -12.9% |
| COc1ccc(N/C(=N/P(=O)(N2CCOCC2)N2CCOCC2)N2CCOCC2)cc1 | inactive: -4.36% |
| O=[As](O)(c1ccc(O)cc1)c1ccccc1O | inactive: -0.92% |
| C[As](=O)(O)c1cccc(C(=O)O)c1 | inactive: -6.93% |
| Cc1ccc2nc3c(c(C)c2c1)CC(C(Cl)Cl)S3 (stereo not drawn) | inactive: -25.8% |
| Cc1ccc(OP(=O)(Nc2ccc([N+](=O)[O-])cn2)Oc2ccc(C)cc2)cc1 | inactive: 8.21% |
| CC(C)c1ccc(OP(=O)(Nc2ccccn2)Oc2ccccc2F)cc1 (stereo not drawn) | inactive: -14% |
| O=[N+]([O-])c1cc([N+](=O)[O-])c(-c2ccn[nH]2)s1 | inactive: -5.2% |
| CC(C)NC(=O)NP(=O)(Oc1ccccc1)Oc1ccccc1 | inactive: -8.44% |
| O=C(O)c1ccccc1[As](=O)(O)O | inactive: -5.09% |
